Experiment: Fe^3+ complexation: stability constants (log β) and sequestering ability (pL0.5) by spectrophotometric titration
Details: solvent MeOH/H2O (80/20 w/w)

| Structure (SMILES) | log β FeL2H2 (Fe^3+ complex) | log β FeLH (Fe^3+ complex) | log β FeL (Fe^3+ complex) | log β FeL2 (Fe^3+ complex) | log β FeL3 (Fe^3+ complex) | pL0.5 (towards Fe^3+ at pH 7.4, [Fe^3+] = 10^−9 M) |
| --- | --- | --- | --- | --- | --- | --- |
| Cc1nc(Cc2ccc(O)cc2)c(=O)n(O)c1C [Ligand 6d, 1-Hydroxy-3-(4-hydroxybenzyl)-5,6-dimethylpyrazin-2(1H)-one] | 46.3(1) | 26.7(1) |  |  |  |  |
| Cc1nc(Cc2ccccc2)c(=O)n(O)c1C [Ligand 6c, 1-Hydroxy-3-benzyl-5,6-dimethylpyrazin-2(1H)-one] |  |  | 12.9(1) | 21.9(1) | 27.8(1) | 5.98 |
| O=c1cncc(-c2ccccc2)n1O [Ligand 10a, 1-Hydroxy-6-phenylpyrazin-2(1H)-one] |  |  | 9.79(2) | 17.89(2) | 21.7(1) |  |
